Experimental data reported in patent US20260364028A1, “COMBINATION TREATMENTS FOR DEPRESSION AND OTHER DISORDERS” (NEURAWELL THERAPEUTICS, priority 2023, published 2026).

Amino acid sequences for entries named in this document (tags omitted).
UniProt P21397, whole entry: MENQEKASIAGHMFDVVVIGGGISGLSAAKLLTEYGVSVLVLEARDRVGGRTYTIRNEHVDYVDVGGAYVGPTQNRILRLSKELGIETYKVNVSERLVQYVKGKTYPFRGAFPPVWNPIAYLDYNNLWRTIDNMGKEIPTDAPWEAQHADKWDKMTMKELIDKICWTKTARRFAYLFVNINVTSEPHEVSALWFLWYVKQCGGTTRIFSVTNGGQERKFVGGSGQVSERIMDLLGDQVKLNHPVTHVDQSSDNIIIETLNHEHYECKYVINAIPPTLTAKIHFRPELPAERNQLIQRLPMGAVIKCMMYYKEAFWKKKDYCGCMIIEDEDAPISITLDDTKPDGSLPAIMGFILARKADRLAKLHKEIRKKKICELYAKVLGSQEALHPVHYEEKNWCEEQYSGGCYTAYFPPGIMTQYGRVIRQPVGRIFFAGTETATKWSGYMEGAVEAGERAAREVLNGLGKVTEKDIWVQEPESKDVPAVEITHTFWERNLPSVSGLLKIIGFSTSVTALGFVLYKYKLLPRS
UniProt P27338, whole entry: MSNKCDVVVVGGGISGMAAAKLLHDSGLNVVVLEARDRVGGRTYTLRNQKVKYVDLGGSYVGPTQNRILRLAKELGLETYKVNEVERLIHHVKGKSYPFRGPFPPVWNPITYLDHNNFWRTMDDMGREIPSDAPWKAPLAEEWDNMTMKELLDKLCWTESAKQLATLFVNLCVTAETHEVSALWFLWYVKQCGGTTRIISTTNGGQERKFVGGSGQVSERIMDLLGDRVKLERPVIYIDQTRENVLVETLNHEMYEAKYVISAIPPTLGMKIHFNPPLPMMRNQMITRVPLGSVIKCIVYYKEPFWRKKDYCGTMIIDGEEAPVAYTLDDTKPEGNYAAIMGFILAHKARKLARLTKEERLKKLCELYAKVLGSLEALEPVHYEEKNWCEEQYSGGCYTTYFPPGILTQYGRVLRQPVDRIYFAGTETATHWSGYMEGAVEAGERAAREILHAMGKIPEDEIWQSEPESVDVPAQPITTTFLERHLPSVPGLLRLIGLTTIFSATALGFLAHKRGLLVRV

How the values were obtained:
Monoamine Oxidase MAO-A = molecular target: T1, Monoamine Oxidase MAO-A (Homo sapiens, UniProt P21397); experiment: Monoamine oxidase MAO-A inhibition enzyme assay (kynuramine, spectrofluorimetric); assay type: biochemical
T1 construct: host or cells: insect cells (recombinant)

Monoamine Oxidase MAO-B = molecular target: T2, Monoamine Oxidase MAO-B (Homo sapiens, UniProt P27338); experiment: Monoamine oxidase MAO-B inhibition enzyme assay (kynuramine, spectrofluorimetric); assay type: biochemical
T2 construct: host or cells: insect cells (recombinant)

IC50 (Monoamine Oxidase MAO-A): 15 nM
IC50 (Monoamine Oxidase MAO-B): 18.9 nM
Compound: NNCCc1ccccc1 [Phenelzine]
